Assay [1] concerns the target mouse CRF receptor, type 2β (mouse) (UniProt Q60748). The assay is described as follows: SPA competition with 0.05 nM [125I-Tyr0]Svg, HEK-293 membranes; 95% CI (3.3-5.3).
In assay [2] the target is rat CRF receptor, type 1 (rat) (UniProt P35353). The assay is described as follows: SPA competition with 0.05 nM [125I-Tyr0]h/rCRF, HEK-293 membranes; 95% CI (52-69).
Assay [3] has the same target. The experiment in a line: SPA competition with 0.05 nM [125I-Tyr0]h/rCRF, HEK-293 membranes; 95% CI (330-400).

As usually defined, the IC50 is the concentration needed to halve the response being measured. Take α-helical CRF^9-41 (peptide): the IC50 came to 4.3 nM in assay [1] and 61 nM in assay [2]. The substance anti-sauvagine-30 (peptide) gave an IC50 in assay [3] of 370 nM.

The values above are taken from patent publication US20040049009A1, “Methods for improving the antagonistic/agonistic properties of peptidic antagonists/agonists of the corticotropin-releasing factor receptor (crfr)” (priority 2000, published 2004).
